Source: PubChem BioAssay AID330 (DTP/NCI, 2004)
Inconclusive results and toxic doses are left out. How the source made its calls: active means survival T/C of 150% or more; inactive means T/C below 125% in these data.

System: P388 leukemia ip, CD2F1 mice, survival T/C
Assay: NCI In Vivo Anticancer Drug Screen. Data for tumor model P388 Leukemia (intraperitoneal) in CD2F1 (CDF1) mice
Conditions: endpoint: median survival time, higher = longer survival

Measured: T/C

CN(Cc1cnc2nc(N)nc(N)c2n1)c1ccc(C(=O)N[C@@H](CCC(=O)O)C(=O)O)cc1
active: dose: 0.38 mg/kg/injection, schedule: Q01DX005 (ip), vehicle: sodium bicarbonate 151 % of control | dose: 1.2 mg/kg/injection, schedule: Q04DX003 (ip), vehicle: saline 172 % of control | dose: 1.5 mg/kg/injection, schedule: Q01DX005 (ip), vehicle: sodium bicarbonate 162 % of control | dose: 2.0 mg/kg/injection, schedule: Q04DX003 (ip), vehicle: sodium bicarbonate 162 % of control | dose: 4.5 mg/kg/injection, schedule: Q04DX003 (iv), vehicle: sodium bicarbonate 172 % of control
